Test results: paper PMC3306502 (2012)

System: LNCaP/AR(cs) xenograft tumors
Conditions: murine xenograft model of human CRPC

CNC(=O)c1ccc(N2C(=S)N(c3cnc(C#N)c(C(F)(F)F)c3)C(=O)C23CCC3)cc1F [ARN-509]
dose achieving maximal therapeutic response: 30 mg/kg/day
